Experimental data reported in patent US4585859A, “Analogues of morpholinyl daunorubicin and morpholinyl doxorubicin” (priority 1984, dated 1986).

What was measured:
[1] = test system: DNA synthesis in L 1210 Cells; assay: Inhibition of DNA synthesis in L 1210 Cells; assay type: cell-based, mouse; details: read-out: Leukemia L-1210 Cells Inhibition of Synthesis ED50, DNA
[2] = test system: RNA synthesis in L 1210 Cells; assay: Inhibition of RNA synthesis in L 1210 Cells; assay type: cell-based, mouse; details: read-out: Leukemia L-1210 Cells Inhibition of Synthesis ED50, RNA

SMILES	IC50 [1] [nM]	IC50 [2] [nM]
COc1cccc2c1C(=O)c1c(O)c3c(c(O)c1C2=O)C[C@@](O)(C(=O)CO)C[C@@H]3O[C@H]1C[C@H]2[C@H](OC3COCC(C#N)N32)[C@H](C)O1 (stereo partly shown)	1700	480
COc1cccc2c1C(=O)c1c(O)c3c(c(O)c1C2=O)C[C@@](O)(C(=O)CO)C[C@@H]3O[C@H]1C[C@H](N2CCOCC2C#N)[C@H](O)[C@H](C)O1 (stereo partly shown) [NSC 357704, 3'-deamino-3'-(3"-cyano-4"-morpholinyl)doxorubicin]	3	
COc1cccc2c1C(=O)c1c(O)c3c(c(O)c1C2=O)C[C@@](O)(C(O)CO)C[C@@H]3O[C@H]1C[C@H](N2CCOCC2C#N)[C@H](O)[C@H](C)O1 (stereo partly shown) [NSC 360291, 3'-deamino-3'-(3"-cyano-4"-morpholinyl)-13-dihydrodoxorubicin]	21	
